The values that follow come from patent US4906661A, “Esters of aryloxypropanolamine derivatives” (E. I. Du Pont de Nemours and Company, priority 1989, dated 1990).

Protein sequences, listed by entry. Tags and fused reporters are not part of them. Residues count along the entry.
UniProt H0W3H1, 1-470: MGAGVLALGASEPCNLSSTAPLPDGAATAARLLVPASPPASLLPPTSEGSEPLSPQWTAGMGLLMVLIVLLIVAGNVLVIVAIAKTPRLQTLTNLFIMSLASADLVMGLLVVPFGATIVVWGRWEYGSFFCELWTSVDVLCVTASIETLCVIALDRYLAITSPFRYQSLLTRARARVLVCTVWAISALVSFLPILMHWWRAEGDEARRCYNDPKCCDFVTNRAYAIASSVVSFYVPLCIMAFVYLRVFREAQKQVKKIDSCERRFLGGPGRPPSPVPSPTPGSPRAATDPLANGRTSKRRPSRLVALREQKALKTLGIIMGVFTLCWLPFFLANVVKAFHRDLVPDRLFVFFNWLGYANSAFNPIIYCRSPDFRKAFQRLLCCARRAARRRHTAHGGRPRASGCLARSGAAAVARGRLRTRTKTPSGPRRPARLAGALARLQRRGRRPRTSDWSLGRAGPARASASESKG

Structures can show the parent of a compound that is named as a salt.

This test concerns the target β1 receptors, guinea pig right atria (Cavia porcellus, UniProt H0W3H1). The test is described as follows: cell-based. To be noted: read-out: PA2 Rt. Atria (converted). As to the method: Each tissue was suspended between a fixed glass rod and a Statham Universal Transducer connected to a Beckman recorder. Atria were allowed to beat spontaneously under a loading tension of approximately 0.5 gm. Intrinsic depressant or stimulant activity was determined for each compound by progressively increasing concentrations in the tissue baths at 60-minute intervals. Tissues were not washed between increments. The maximum concentration showing little or no cardiodepressant activity was chosen for blockade experiments. Changes in rate in response to isoproterenol, a standard β-receptor agonist, were measured in the absence and presence of test compounds. Spiral strips of guinea pig trachea were suspended under 5 gm resting tension and incubated with phentolamine, tropolone and cocaine. Active tension was generated by addition of carbachol (3.0×10^-7 M) and decreases in tension in response to isoproterenol were quantitated. Cumulative concentration-response curves were produced with isoproterenol both before and after 60-minute incubation of test compounds with atria and trachea. […] The blocking potency of test compounds was estimated by computing pA2 values (-log KB) by the method of Furchgott, the Pharmacological Differentiation of Adrenergic Receptors, Ann. […] The degree of cardioselectivity was estimated from the ratio, KB trachea/KB atria (10^(pA2 atria-pA2 trachea)). […]

As for `COC(=O)c1ccccc1OCC(O)CNC(C)(C)CNS(=O)(=O)c1ccccc1` (stereo not shown) [VIII, Methyl 2-[2-Hydroxy-3-[N-[1,1-dimethyl-2-(phenylsulfonylamino)ethyl]amino]proxy]benzoate Oxalate], the Kb is 2 nM.
